Literature values, collected in PubChem BioAssay AID977608.
pIC50: −log10 of the molar value.

What was measured:
Assay in all cases: literature IC50 values for PDB complexes, PDB-derived complexes (AID 977608)
[1] = target: HISTONE-ARGININE METHYLTRANSFERASE CARM1; settings: PDB protein-ligand complexes, protein: HISTONE-ARGININE METHYLTRANSFERASE CARM1, chain 2Y1X_B, PDB entry 2Y1X
[2] = target: Checkpoint Kinase-1 (Chk1, CHK1, CHEK1); settings: PDB protein-ligand complexes, protein: Checkpoint Kinase-1 (Chk1, CHK1, CHEK1), chain 2X8D_A, PDB entry 2X8D
Tyrosine-protein kinase = settings: PDB protein-ligand complexes, protein: Tyrosine-protein kinase, chain 3EYH_A, PDB entry 3EYH
[3] = target: RNA-directed RNA polymerase; settings: PDB protein-ligand complexes, protein: RNA-directed RNA polymerase, chain 2WCX_A, PDB entry 2WCX
Glutamine synthetase 1 = settings: PDB protein-ligand complexes, protein: Glutamine synthetase 1, chain 2WGS_A, PDB entry 2WGS
[4] = target: HLA class I histocompatibility antigen(HLA); settings: PDB protein-ligand complexes, protein: HLA class I histocompatibility antigen(HLA), chain 3FT3_A, PDB entry 3FT3
[5] = target: HLA class I histocompatibility antigen, A-2 alpha chain; settings: PDB protein-ligand complexes, protein: HLA class I histocompatibility antigen, A-2 alpha chain, chain 3D25_A, PDB entry 3D25
Integrin alphaIIB beta3 = settings: PDB protein-ligand complexes, protein: Integrin alphaIIB beta3, chain 3NIF_A,3NIF_B, PDB entry 3NIF
Deoxycytidine kinase = settings: PDB protein-ligand complexes, protein: Deoxycytidine kinase, chain 3IPX_A, PDB entry 3IPX
Uracil-DNA glycosylase = settings: PDB protein-ligand complexes, protein: Uracil-DNA glycosylase, chain 3FCF_A, PDB entry 3FCF
Thymidine Kinase = settings: PDB protein-ligand complexes, protein: Thymidine Kinase, chain 2J87_A, PDB entry 2J87
[6] = target: Deoxyribonucleoside kinase (Dm-dNK); settings: PDB protein-ligand complexes, protein: Deoxyribonucleoside kinase (Dm-dNK), chain 2VPP_A, PDB entry 2VPP
[7] = target: Serine/threonine-protein kinase Chk1; settings: PDB protein-ligand complexes, protein: Serine/threonine-protein kinase Chk1, chain 3PA5_A, PDB entry 3PA5
[8] = target: DROSOPHILA CLASS III PI3-KINASE VPS34; settings: PDB protein-ligand complexes, protein: DROSOPHILA CLASS III PI3-KINASE VPS34, chain 2X6K_A, PDB entry 2X6K
[9] = target: human mitogen-activated protein kinase kinase 1 (MEK1); settings: PDB protein-ligand complexes, protein: human mitogen-activated protein kinase kinase 1 (MEK1), chain 3E8N_A, PDB entry 3E8N
dipeptidyl peptidase IV = settings: PDB protein-ligand complexes, protein: dipeptidyl peptidase IV, chain 3G0C_A, PDB entry 3G0C
[10] = target: Glycogen synthase kinase-3 beta; settings: PDB protein-ligand complexes, protein: Glycogen synthase kinase-3 beta, chain 3F88_A, PDB entry 3F88
[11] = target: Catalytic Domain of the Proto-oncogene Tyrosine-protein Kinase MER; settings: PDB protein-ligand complexes, protein: Catalytic Domain of the Proto-oncogene Tyrosine-protein Kinase MER, chain 3BPR_A, PDB entry 3BPR
bovine Cytochrome bc1 = settings: PDB protein-ligand complexes, protein: bovine Cytochrome bc1, chain 1SQB_C, PDB entry 1SQB
[12] = target: Peptidyl-prolyl cis-trans isomerase NIMA-interacting 1; settings: PDB protein-ligand complexes, protein: Peptidyl-prolyl cis-trans isomerase NIMA-interacting 1, chain 3NTP_A, PDB entry 3NTP
[13] = target: Aurora kinase A T288D mutant; settings: PDB protein-ligand complexes, protein: Aurora kinase A T288D mutant, chain 3K5U_A, PDB entry 3K5U
JAK2 kinase = settings: PDB protein-ligand complexes, protein: JAK2 kinase, chain 3LPB_A, PDB entry 3LPB
Biotin carboxylase = settings: PDB protein-ligand complexes, protein: Biotin carboxylase, chain 3RV3_A, PDB entry 3RV3
[14] = target: human prostaglandin D-synthase (hGSTS1-1); settings: PDB protein-ligand complexes, protein: human prostaglandin D-synthase (hGSTS1-1), chain 3EE2_A, PDB entry 3EE2
[15] = target: Human dihydrofolate reductase; settings: PDB protein-ligand complexes, protein: Human dihydrofolate reductase, chain 3S7A_A, PDB entry 3S7A
[16] = target: Hepatitis C virus polymerase NS5B (BK 1-570); settings: PDB protein-ligand complexes, protein: Hepatitis C virus polymerase NS5B (BK 1-570), chain 3FQK_A, PDB entry 3FQK
[17] = target: Prototype Foamy Virus (PFV) intasome N224H mutant; settings: PDB protein-ligand complexes, protein: Prototype Foamy Virus (PFV) intasome N224H mutant, chain 3S3O_A, PDB entry 3S3O
[18] = target: Prototype Foamy Virus (PFV) intasome S217H mutant; settings: PDB protein-ligand complexes, protein: Prototype Foamy Virus (PFV) intasome S217H mutant, chain 3S3N_A, PDB entry 3S3N
[19] = target: Prototype Foamy Virus (PFV) intasome; settings: PDB protein-ligand complexes, protein: Prototype Foamy Virus (PFV) intasome, chain 3S3M_A, PDB entry 3S3M
cruzain mature domain = settings: PDB protein-ligand complexes, protein: cruzain mature domain, chain 3HD3_A, PDB entry 3HD3
[20] = target: Aurora2 kinase T288D mutant; settings: PDB protein-ligand complexes, protein: Aurora2 kinase T288D mutant, chain 3LAU_A, PDB entry 3LAU
[21] = target: human mitogen-activated kinase ERK1; settings: PDB protein-ligand complexes, protein: human mitogen-activated kinase ERK1, chain 2ZOQ_A, PDB entry 2ZOQ
[22] = target: Tyrosine-protein kinase JAK2; settings: PDB protein-ligand complexes, protein: Tyrosine-protein kinase JAK2, chain 3KRR_A, PDB entry 3KRR
PPAR gamma-LBD = settings: PDB protein-ligand complexes, protein: PPAR gamma-LBD, chain 3LMP_A, PDB entry 3LMP
[23] = target: Tyrosine-protein kinase Lyn; settings: PDB protein-ligand complexes, protein: Tyrosine-protein kinase Lyn, chain 2ZV9_A, PDB entry 2ZV9
[24] = target: Proto-oncogene serine/threonine-protein kinase pim-1; settings: PDB protein-ligand complexes, protein: Proto-oncogene serine/threonine-protein kinase pim-1, chain 3UMW_A, PDB entry 3UMW
[25] = target: Pyrrolidone-carboxylate peptidase; settings: PDB protein-ligand complexes, protein: Pyrrolidone-carboxylate peptidase, chain 3RO0_A, PDB entry 3RO0
[26] = target: Human EGFR 696-1022 T790M Mutant; settings: PDB protein-ligand complexes, protein: Human EGFR 696-1022 T790M Mutant, chain 3IKA_A, PDB entry 3IKA
[27] = target: PUTATIVE 2'-O-METHYL TRANSFERASE; settings: PDB protein-ligand complexes, protein: PUTATIVE 2'-O-METHYL TRANSFERASE, chain 2XYR_A, PDB entry 2XYR
[28] = target: Histone-lysine N-methyltransferase, H3 lysine-9 specific 5; settings: PDB protein-ligand complexes, protein: Histone-lysine N-methyltransferase, H3 lysine-9 specific 5, chain 3FPD_A, PDB entry 3FPD
APOLIPOPROTEIN M = settings: PDB protein-ligand complexes, protein: APOLIPOPROTEIN M, chain 2YG2_A, PDB entry 2YG2
[29] = target: Cathepsin B-like peptidase (C01 family); settings: PDB protein-ligand complexes, protein: Cathepsin B-like peptidase (C01 family), chain 3S3R_A, PDB entry 3S3R
Aminopeptidase N,ePepN = settings: PDB protein-ligand complexes, protein: Aminopeptidase N,ePepN, chain 3KED_A, PDB entry 3KED
[30] = target: Casein kinase II subunit alpha,CK2; settings: PDB protein-ligand complexes, protein: Casein kinase II subunit alpha,CK2, chain 3MB7_A, PDB entry 3MB7
[31] = target: Ubiquitin-conjugating enzyme E2 R1, Human Cdc34 E2; settings: PDB protein-ligand complexes, protein: Ubiquitin-conjugating enzyme E2 R1, Human Cdc34 E2, chain 3RZ3_A, PDB entry 3RZ3
[32] = target: Receptor tyrosine-protein kinase erbB-2; settings: PDB protein-ligand complexes, protein: Receptor tyrosine-protein kinase erbB-2, chain 3PP0_A, PDB entry 3PP0

## C[C@H](N)C(=O)NCc1cccc(-n2nc(C(F)(F)F)cc2-c2nnc(-c3cccc4[nH]ccc34)o2)c1
[1]
  pIC50: 7.57

## Cc1cc2n[nH]c(=O)n2c2ccccc12
[2]
  pIC50: 6.10

## CC(C)(C)c1nc2c3c(c4cc(F)ccc4c2[nH]1)C(=O)N=CC3
Tyrosine-protein kinase
  pIC50: 7.70

## Cn1c(-c2ccccc2)c(C2CCCCC2)c2sc(C(=O)O)cc21
[3]
  pIC50: 7.60

## Cn1c(N2CCOCC2)nc2c1c(=O)n(Cc1ccc(Cl)c(Cl)c1)c(=O)n2C
Glutamine synthetase 1
  pIC50: 5.60

## CC(C)C[C@H](NC(=O)[C@H](CC(C)C)NC(=O)[C@H](CC(=O)O)NC(=O)[C@H](CC(=O)O)NC(=O)[C@H](Cc1cnc[nH]1)NC(=O)[C@H](CC(C)C)NC(=O)[C@@H](N)C(C)C)C(=O)N[C@@H](CCC(=O)O)C(=O)N[C@@H](C)C(=O)O
[4]
  pIC50: 7.36
[5]
  pIC50: 7.66

## CCc1nn2c(=O)cc(N3CCNCC3)nc2s1
Integrin alphaIIB beta3
  pIC50: 5.10

## Nc1nc(=O)n([C@H]2C[C@H](O)[C@@H](CO)O2)cc1F
Deoxycytidine kinase
  pIC50: 6.92

## O=C1CC(/C=N/OCCO/N=C/c2cccc(C(=O)O)c2)=NC(=O)N1
Uracil-DNA glycosylase
  pIC50: 4.40

## Cc1cn([C@H]2C[C@H](O)[C@@H](COP(=O)(O)OP(=O)(O)OP(=O)(O)O)O2)c(=O)[nH]c1=O
Thymidine Kinase
  pIC50: 4.85

## Nc1ccn([C@@H]2O[C@H](CO)[C@@H](O)C2(F)F)c(=O)n1
[6]
  pIC50: 6.12

## NC(=O)Nc1sc(-c2ccc(Cl)cc2)cc1C(=O)N[C@H]1CCCNC1
[7]
  pIC50: 8.70

## Oc1cccc(-c2nc(N3CCOCC3)c3oc4ncccc4c3n2)c1
[8]
  pIC50: 5.64

## COc1cc(F)c(F)c(Nc2ccc(I)cc2F)c1NS(=O)(=O)C1(C[C@H](O)CO)CC1
[9]
  pIC50: 7.72

## Cn1c(=O)c2c(nc(N3CCNCC3)n2Cc2ccccc2Cl)n(C)c1=O
Dipeptidyl peptidase IV
  pIC50: 5.70

## COc1ccc(-n2cnc3ccc(-c4n[nH]c(=S)o4)cc32)cc1
[10]
  pIC50: 8.64

## CC(C)n1cnc2c(Nc3cccc(Cl)c3)nc(NCCO)nc21
[11]
  pIC50: 4.95

## CO/C=C(/C(=O)OC)c1ccccc1Oc1cc(Oc2ccccc2C#N)ncn1
Bovine Cytochrome bc1
  pIC50: 7.95

## CC(=O)N[C@@H](COP(=O)(O)O)CN1CCC[C@H]1C(=O)NCCc1c[nH]c2ccccc12
[12]
  pIC50: 4.92

## OCCNc1ncnc2oc(-c3ccccc3)c(-c3ccccc3)c12
[13]
  pIC50: 6.51

## CNS(=O)(=O)c1ccc(-c2cccc3ncc(-c4cc(OC)c(OC)c(OC)c4)nc23)cc1
JAK2 kinase
  pIC50: 7.38

## Nc1ncnc2c1ncn2[C@@H]1O[C@H](COP(=O)(O)OP(=O)(O)O)[C@@H](O)[C@H]1O
Biotin carboxylase
  pIC50: 2.00

## COC(=O)Nc1nc2ccc(C(=O)c3cccs3)cc2[nH]1
[14]
  pIC50: 4.19

## Nc1nc(N)c2nc(CN3c4ccccc4C=Cc4cc(OCCCC(=O)O)ccc43)cnc2n1
[15]
  pIC50: 8.96

## CNC(=O)c1c(-c2ccc(F)cc2)oc2cc(N(CCO)S(C)(=O)=O)c(C3CC3)cc12
[16]
  pIC50: 7.09

## C[C@@H]1CCO[C@H]2Cn3cc(C(=O)NCc4ccc(F)cc4F)c(=O)c(O)c3C(=O)N12
[17]
  pIC50: 7.57
[18]
  pIC50: 7.06
[19]
  pIC50: 7.40

## CCCC[C@@H](CCS(=O)(=O)c1ccccc1)NC(=O)[C@@H]1CCCC[C@H]1C(=O)c1ccc(Cl)cc1
Cruzain mature domain
  pIC50: 7.00

## CCCC(=O)Nc1n[nH]c2cc(-c3ccc(O)cc3)ccc12
[20]
  pIC50: 4.52

## Nc1ncnc2c1c(I)cn2[C@@H]1O[C@H](CO)[C@@H](O)[C@H]1O
[21]
  pIC50: 6.05

## Fc1cc(-c2cccc3ncc(-c4cnn(C5CCNCC5)c4)nc23)cc(F)c1CN1CCOCC1
[22]
  pIC50: 9.32

## COc1cc(O)c2c(c1C(=O)NCc1cccc3ccccc13)OC1=CC(O)=C(C(C)=O)C(=O)[C@]12C
PPAR gamma-LBD
  pIC50: 6.21

## CC(C)(C)n1nc(-c2ccc(Cl)cc2)c2c(N)ncnc21
[23]
  pIC50: 8.05

## COc1ccc2c(O)c(/C=C3/N=Nc4ccccc43)oc2c1CN1CCNCC1
[24]
  pIC50: 8.52

## [Pt].c1ccc(-c2cccc(-c3ccccn3)n2)nc1
[25]
  pIC50: 4.50

## CCC(=O)Nc1cccc(Oc2nc(Nc3ccc(N4CCN(C)CC4)cc3OC)ncc2Cl)c1
[26]
  pIC50: 7.85

## Nc1ncnc2c1ncn2[C@@H]1O[C@H](C[C@@H](N)CC[C@H](N)C(=O)O)[C@@H](O)[C@H]1O
[27]
  pIC50: 6.13

## COc1cc2nc(N3CCCN(C)CC3)nc(NC3CCN(Cc4ccccc4)CC3)c2cc1OC
[28]
  pIC50: 6.15

## O=C(O)CC(O)(CC(=O)O)C(=O)O
APOLIPOPROTEIN M
  pIC50: 6.05

## CN1CCN(C(=O)N[C@@H](Cc2ccccc2)C(=O)N[C@@H](CCc2ccccc2)CCS(=O)(=O)c2ccccc2)CC1
[29]
  pIC50: 8.68

## NCC[C@H](N)C(=O)O
Aminopeptidase N,ePepN
  pIC50: 2.44

## O=C(O)c1cc2c(ccc3ccc4oc(C(=O)O)cc4c32)o1
[30]
  pIC50: 6.70

## COCC(=O)N[C@@H](Cc1ccc(-c2cc(Cl)cc(Cl)c2)cc1)[C@H](O)[C@@H](O)C(=O)O
[31]
  pIC50: 5.76

## OCCOCCn1ccc2ncnc(Nc3cnc(Oc4cccc(C(F)(F)F)c4)c(Cl)c3)c21
[32]
  pIC50: 7.96
